For series [1] the following is noted: pH 7.2. The protocol: Stock solutions containing the desired complex in DMSO (5 mM) were diluted with phosphate buffer (pH 7.2) to a final concentration of […] compound in 1 % DMSO/20 mM buffer and directly analyzed by four different isocratic UHPLC runs (Δ=5 %). The lipophilicity parameters logkw and lipophilicity indices φ0 were calculated according to literature.7, 37

The subject of series [2] is human cancer cell lines CH1/PA‐1, SW480, A549.

With “Chlorido[1‐benzyl‐2‐methyl‐3‐oxo‐κO‐pyridine‐4(1H)‐thionato‐κS](η^5‐1,2,3,4,5‐pentamethylcyclopentadienyl)rhodium(III) [Compound 5 c]”, the “φ0 (chromatographic lipophilicity index)” value in series [1] amounted to 6.28. For the same substance, the “cytotoxicity relative to 3 c and 4 c” value in series [2] is “up to 20 times”.

Values taken from publication PMC7217150, “Synthesis, Modification, and Biological Evaluation of a Library of Novel Water‐Soluble Thiopyridone‐Based Organometallic Complexes and Their Unexpected (Biological) Behavior” (Chemistry (Weinheim an Der Bergstrasse, Germany), 2020).
